Measurements reported in patent publication US20030092613A1, “Alpha7 nicotinic receptor peptides as ligands for beta amyloid peptides” (priority 2000, published 2003).

What was measured:
[1] = test system: Biotin-huma7-5; set-up: species or system human; conditions: read-out: IC50, 125I-α-BTX binding to Biotin-huma7-5
[2] = test system: guinea pig hippocampal synaptosomes; assay: ACh release from guinea pig hippocampal synaptosomes (β-amyloid inhibition of K+-evoked release); assay type: cell-based; conditions: for ACh rel % Inh @ 100 μM: attenuation of β-amyloid's inhibition on potassium-evoked ACh release; for IC50: 3 h
Procedure: ACh release from guinea pig hippocampal synaptosomes: Synaptosomes (P2 fraction) were prepared from guinea pig hippocampus as described previously and re-suspended in a Krebs-Ringer solution containing 0.1 μM [methyl-^3H]choline chloride (NEN, Boston, Mass.) and incubated at 37° C. for 30 min. Unincorporated choline was removed by washing and the synaptosomes were resuspended in Krebs-Ringer solution to 10 mg/mL. ACh release from synaptosomes was measured using the parallel superfusion chambers (Hugo Sachs Elektronik, March-Hugstetten, Germany) according to that described earlier (Wang, H. -Y. et al Neuropeptides 1999; 33, 197-205). The synaptosomal suspension (250 μL) was placed in each of the superfision chambers between two circular pieces of GF/B filters (Whatman, England). The chambers were perfused with oxygenated Krebs-Ringer containing 1 μM physostigmine hemisulfate at a flow rate of 0.5 mL/min. The onset of superfusion was defined as time zero (to). Starting 30 min after t0, fractions of the effluent were collected 12 times at 10-minute intervals.
The tissues were treated with peptides and ACh release was evoked by superfusing with 65 mM K^+-Krebs-Ringer (made by equimolar replacement of NaCl with KCl) for 30 seconds. […] Twenty minutes prior to K^+ stimulation (S2, S3 or S4), tissues were superfused with Krebs-Ringer solution that contained various concentrations of compound or vehicle (control) for 30 min. After perfusion, 5 mL of Scintsafe PlusTM 50% (Fisher Scientific) was added to the synaptosomes (on filter) and aliquots of the superfusates (0.5 mL). The amount of ^3H in the superfusate samples was measured by liquid scintillation spectrometry.
Tritiurn efflux into the superfusate was calculated as the fraction of ^3H content in the synaptosomes at the onset of the respective collection period. To calculate the amount of ^3H present in the superfusate after K^+ stimulation, the estimated basal efflux (the average of the 10-minute fractions immediately before and after each stimulation) was subtracted from the total efflux during the 10-minute fraction which began with the 30-second second K^+ stimulus. This difference was then used to calculate the percent of K^+-evoked release of ACh.
Data are expressed as the mean fractional ^3H release±S.E.M. Statistical differences between treatments were tested by Student's t test, two-tailed or the two-factor ANOVA as appropriate. Individual differences in the dose-response curve were evaluated by the Newman-Keuls multiple comparison test.

Row | Compound | IC50 [1] [µM] | ACh rel % Inh @ 100 μM [2] [%] | IC50 [2] [µM]
1 | CC[C@H](C)[C@H](NC(C)=O)C(=O)N1CCC[C@H]1C(=O)NCC(=O)N[C@@H](CCCCN)C(=O)N[C@@H](CCCNC(=N)N)C(=O)N[C@@H](CO)C(=O)N[C@@H](CCC(=O)O)C(=O)N[C@@H](CCCNC(=N)N)C(=O)N[C@@H](Cc1ccccc1)C(=O)N[C@@H](Cc1ccc(O)cc1)C(=O)N[C@@H](CCC(=O)O)C(=O)N[C@@H](CS)C(=O)N[C@@H](CS)C(=O)N[C@@H](CCCCN)C(=O)N[C@@H](CCC(=O)O)C(=O)N1CCC[C@H]1C(=O)N[C@@H](Cc1ccc(O)cc1)C(=O)N1CCC[C@H]1C(=O)N[C@@H](CC(=O)O)C(=O)N[C@H](C(N)=O)C(C)C [compound 6] | 0.2 | 73 | 0.626
2 | CC(=O)N[C@@H](C)C(=O)N[C@@H](CCC(=O)O)C(=O)N[C@@H](CCCNC(=N)N)C(=O)N[C@@H](Cc1ccccc1)C(=O)N[C@@H](Cc1ccc(O)cc1)C(=O)N[C@@H](CCC(=O)O)C(=O)N[C@@H](CS)C(=O)N[C@@H](CS)C(=O)N[C@@H](CCCCN)C(=O)N[C@@H](CCC(=O)O)C(=O)N1CCC[C@H]1C(N)=O [compound 10] | 15 | 15 | > 10
3 | CC(=O)N[C@@H](CO)C(=O)N[C@@H](CCC(=O)O)C(=O)N[C@@H](CCCNC(=N)N)C(=O)N[C@@H](Cc1ccccc1)C(=O)N[C@@H](Cc1ccc(O)cc1)C(=O)N[C@@H](CCC(=O)O)C(=O)N[C@@H](C)C(=O)N[C@@H](CS)C(=O)N[C@@H](CCCCN)C(=O)N[C@@H](CCC(=O)O)C(=O)N1CCC[C@H]1C(N)=O [compound 15] | > 100 | 19 | > 10
4 | CC(=O)N[C@@H](CO)C(=O)N[C@@H](CCC(=O)O)C(=O)N[C@@H](CCCNC(=N)N)C(=O)N[C@@H](C)C(=O)N[C@@H](Cc1ccc(O)cc1)C(=O)N[C@@H](CCC(=O)O)C(=O)N[C@@H](CS)C(=O)N[C@@H](CS)C(=O)N[C@@H](CCCCN)C(=O)N[C@@H](CCC(=O)O)C(=O)N1CCC[C@H]1C(N)=O [compound 12] | > 100 | 14 | > 10
5 | CC(=O)N[C@@H](CO)C(=O)N[C@@H](CCC(=O)O)C(=O)N[C@@H](CCCNC(=N)N)C(=O)N[C@@H](Cc1ccccc1)C(=O)N[C@@H](Cc1ccc(O)cc1)C(=O)N[C@@H](CCC(=O)O)C(=O)N[C@@H](CS)C(=O)N[C@@H](C)C(=O)N[C@@H](CCCCN)C(=O)N[C@@H](CCC(=O)O)C(=O)N1CCC[C@H]1C(N)=O [compound 2] | > 100 | 85 | 0.165
